System: rat striatal slices
Assay: In vitro [3H]-dopamine release from rat striatal slices
Format: cell-based

`c1cnc2[nH]cc(C[C@@H]3CCCN3)c2c1` (stereo in doubt) [Compound 97, (S)-3-Pyrrolidin-2-ylmethyl-1H-pyrrolo[2,3-b]pyridine] was tested, and the “Functional activity release [^3H]-Dopamine % of control” value was 122 % of control.

Source: US8252930B2, “Azaindole derivatives with a combination of partial nicotinic acetyl-choline receptor agonism and dopamine reuptake inhibition” (Solvay Pharmaceuticals B.V., priority 2006, dated 2012)
